{"sequences": {"note": "Sequences of proteins named here, by UniProt entry; tags and fusion partners are left off. A change or cut given only in a name is not applied to a line headed by its entry.", "UniProt Q12809": "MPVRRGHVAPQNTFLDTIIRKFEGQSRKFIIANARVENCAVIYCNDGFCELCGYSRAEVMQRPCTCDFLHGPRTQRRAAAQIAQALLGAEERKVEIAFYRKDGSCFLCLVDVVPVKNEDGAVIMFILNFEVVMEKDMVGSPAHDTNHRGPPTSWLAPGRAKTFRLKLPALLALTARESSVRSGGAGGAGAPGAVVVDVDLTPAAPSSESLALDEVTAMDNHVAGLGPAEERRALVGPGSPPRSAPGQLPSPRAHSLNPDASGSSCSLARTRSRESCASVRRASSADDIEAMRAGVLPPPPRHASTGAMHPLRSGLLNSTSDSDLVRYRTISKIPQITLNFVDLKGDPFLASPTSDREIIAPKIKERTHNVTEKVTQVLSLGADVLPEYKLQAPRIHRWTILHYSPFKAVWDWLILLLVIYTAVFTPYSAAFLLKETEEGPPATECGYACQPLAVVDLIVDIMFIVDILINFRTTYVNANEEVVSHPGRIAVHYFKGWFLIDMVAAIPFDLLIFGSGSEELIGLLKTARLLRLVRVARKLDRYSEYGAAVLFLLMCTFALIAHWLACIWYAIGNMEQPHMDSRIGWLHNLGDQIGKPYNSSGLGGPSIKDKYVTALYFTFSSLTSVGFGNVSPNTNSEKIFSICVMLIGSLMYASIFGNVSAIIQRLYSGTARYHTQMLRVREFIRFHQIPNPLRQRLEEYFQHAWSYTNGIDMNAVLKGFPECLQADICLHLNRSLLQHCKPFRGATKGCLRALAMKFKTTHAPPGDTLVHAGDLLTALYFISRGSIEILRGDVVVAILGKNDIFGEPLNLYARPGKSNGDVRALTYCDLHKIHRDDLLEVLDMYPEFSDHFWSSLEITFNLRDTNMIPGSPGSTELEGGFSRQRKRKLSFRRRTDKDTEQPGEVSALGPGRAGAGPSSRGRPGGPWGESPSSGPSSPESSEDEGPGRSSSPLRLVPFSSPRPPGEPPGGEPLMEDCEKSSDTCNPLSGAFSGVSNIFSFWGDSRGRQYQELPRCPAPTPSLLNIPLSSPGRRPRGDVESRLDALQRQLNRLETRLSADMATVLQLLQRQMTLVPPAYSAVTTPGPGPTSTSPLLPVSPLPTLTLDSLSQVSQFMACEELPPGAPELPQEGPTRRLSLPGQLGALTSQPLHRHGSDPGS"}, "source": "patent US20080227100A1", "about": "“METHOD FOR ESTIMATING hERG INHIBITION OF DRUG CANDIDATES USING MULTIVARIATE PROPERTY AND PHARMACOPHORE SAR” (priority 2007, published 2008)", "biological_target": "hERG channel (Homo sapiens, UniProt Q12809)"}
{"compound": "COc1cc(N)c(Cl)cc1C(=O)NC1CCN(CCCOc2ccc(F)cc2)CC1OC", "note": "(stereo not shown) [cisapride]", "values": [{"measurement": "inhibition of recombinant hERG currents", "value": "inhibit recombinant hERG currents"}]}
